These results are taken from patent publication US11028058B2, “Heterocyclic compounds as adenosine antagonists” (NUVATION BIO INC., priority 2017, dated 2021).

Usually IC50 stands for the concentration that gives 50% inhibition.

This test addresses HEK-293 cells expressing human recombinant adenosine A2A receptor (Homo sapiens (Human), UniProt P29274). The test is described as follows: cAMP assay, Assay 2 (Eu-cAMP tracer / ULight-anti-cAMP). As to conditions: read-out: A2a cAMP IC50. The procedure:
The functional activity of compounds was tested using one of the two assays to detect the present of cAMP. Activation of G-protein coupled receptors (such as A2A) results in activation of adenylcyclase which converts ATP into cAMP which is used as a downstream signaling molecule. Therefore, molecules which act as GPCR (or specifically A2A receptor) antagonists cause a decrease in intracellular cAMP concentration.
Both assays used HEK-293 cells expressing human recombinant adenosine A2A receptor were grown prior to the test in media without antibiotic. Assay 1 (Table B2-1): The cells were detached by gentle flushing with PBS-EDTA (5 mM EDTA), recovered by centrifugation and suspended in assay buffer (KRH: 5 mM KCl, 1.25 mM MgSO4, 124 mM NaCl, 25 mM HEPES, 13.3 mM Glucose, 1.25 mM KH2PO4, 1.45 mM CaCl2, 0.5 g/L BSA, supplemented with Rolipram).
Assay 2 (Table B2-2): 100 nL of test articles at 100× of final concentration were transferred to assay plate by Echo. Cells were washed twice with 5 mL of PBS […]. After aspirating the PBS and adding 1.5 mL versine, cells were incubated at 37° C. for 2-5 min. After centrifugation, 4 mL of medium was added and adjusted cell density to 5,000 cells/well with Stimulation Buffer. […] Plates were read on EnVision.

Consider `Cc1ccn(-c2nc(N)cnc2-c2cc(Cl)c3[nH]cnc3c2)n1`, for which the half-maximal inhibitory concentration (IC50) is 0.867 µM.
